Results from PubChem BioAssay AID1918 (Vanderbilt High Throughput Screening Facility, 2009).
The entries are a selection whose mix differs from that of the whole data set. Some of these compounds have results that are not shown, active ones among them. Calls of active or inactive are those of the source.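 How the source made its calls: active means signal ratio slope over the read window, or its plate-corrected B-score, at least 3 SD from the plate mean, either direction; inactive means the rest.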

The chains behind the UniProt entries cited, without tags or fusion partners.
UniProt P48048, whole entry: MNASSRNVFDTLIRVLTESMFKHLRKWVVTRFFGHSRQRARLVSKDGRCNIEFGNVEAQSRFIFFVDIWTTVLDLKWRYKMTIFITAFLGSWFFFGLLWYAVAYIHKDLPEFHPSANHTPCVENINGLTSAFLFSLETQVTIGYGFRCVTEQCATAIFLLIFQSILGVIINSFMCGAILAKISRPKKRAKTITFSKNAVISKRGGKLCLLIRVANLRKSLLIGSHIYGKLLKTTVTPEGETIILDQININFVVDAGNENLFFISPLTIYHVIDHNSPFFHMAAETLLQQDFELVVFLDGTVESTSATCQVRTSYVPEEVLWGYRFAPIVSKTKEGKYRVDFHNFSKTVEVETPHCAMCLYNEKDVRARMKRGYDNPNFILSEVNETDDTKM

Target: ATP-sensitive inward rectifier potassium channel 1 (Homo sapiens) (UniProt P48048)
Assay: Kir1.1 channel activity modulation, library screen – cell-based, thallium flux, MLSMR library, primary screen (AID 1918);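 further: B-score of the F/F0 ratio slope over 7 to 12 s after thallium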
Conditions: Tet-inducible ROMK, thallium flux fluorescence; at 10 µM; actives lie on both sides

| Compound | B-score |
| --- | --- |
| C=CCN1CCN(CCOC(=O)C(O)(c2ccccc2)c2ccccc2)CC1 | inactive: 0.262 |
| CCN1CCCC(OC(=O)C2(O)c3ccccc3C=Cc3ccccc32)C1 (stereo not drawn) | inactive: -0.765 |
| Cc1ccccc1C(=O)NCC1(N2CCCCC2)CCCCC1 | inactive: -0.112 |
| CN(C)C1CCCC1OC(=O)C(O)(c1ccccc1)c1ccccc1 (stereo not drawn) | inactive: 0.0128 |
| CCN(CC)CC(C)C(C)OC(=O)C(O)(c1ccccc1)c1ccccc1 (stereo not drawn) | inactive: -0.638 |
| O=C(NCC1(N2CCCCC2)CCCCC1)c1cc([N+](=O)[O-])ccc1Cl | inactive: -0.474 |
| CN(C)c1cccc(C(=O)NCC2(N(C)C)CCCCC2)c1 | inactive: -0.793 |
| COc1cccc(C(=O)NCC2(N3CCCCC3)CCCCC2)c1 | inactive: 0.259 |
